Experimental data from ChEMBL document CHEMBL1138153, “N-substituted 4beta-methyl-5-(3-hydroxyphenyl)-7alpha-amidomorphans are potent, selective kappa opioid receptor antagonists” (J Med Chem, 2006).

Amino acid sequences for entries named in this document (tags omitted).
UniProt P35372, whole entry: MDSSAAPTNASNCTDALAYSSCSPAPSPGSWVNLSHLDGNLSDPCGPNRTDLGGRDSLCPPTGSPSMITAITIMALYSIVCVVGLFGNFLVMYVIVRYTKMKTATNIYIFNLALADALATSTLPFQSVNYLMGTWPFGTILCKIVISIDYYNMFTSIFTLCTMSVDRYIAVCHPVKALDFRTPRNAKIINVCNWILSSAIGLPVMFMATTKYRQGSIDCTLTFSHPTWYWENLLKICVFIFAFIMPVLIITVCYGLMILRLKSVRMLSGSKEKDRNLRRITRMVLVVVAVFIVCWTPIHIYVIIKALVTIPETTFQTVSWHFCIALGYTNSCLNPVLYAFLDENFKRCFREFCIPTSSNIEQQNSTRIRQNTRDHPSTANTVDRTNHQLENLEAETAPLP

Target: Mu-type opioid receptor (Homo sapiens) (UniProt P35372)
Assay: Inhibition of DAMGO stimulated [35S]GTP-gamma-S binding to cloned human mu opioid receptor expressed in CHO cells
Format: functional, cell-based
Method in brief: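 Antagonism measured as a rightward shift of the agonist concentration–response curve for [35S]GTPγS binding in CHO cells expressing the cloned human receptor. Curves were run with and without one fixed concentration of test compound. Ke = [L]/(DR − 1), where [L] is the test compound concentration and DR is the ratio of agonist EC50 with versus without test compound.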

For `CC(C)[C@@H](CN1CC[C@@](C)(c2cccc(O)c2)[C@@H](C)C1)NC(=O)[C@H]1Cc2ccc(O)cc2CN1`, the Ke was 25 nM.
